For the experiment, the target named is Drp1 (Homo sapiens (Human), UniProt O00429). In words: Drp1 Activity Screen: colorimetric (malachite green) GTPase assay. It counts as biochemical. As to conditions: max % inhibition of Drp1 GTPase activity; 0.6 μM Drp1, 0.1 mg/mL liposomes, 1 mM GTP, 20 min at 37° C. As to the method: The GTPase activity of Drp1 was assayed using a colorimetric assay similar to as described previously by Leonard M. et al. “Robust colorimetric assays for dynamin's basal and stimulated GTPase activities.” Methods Enzymol. […] Briefly, for GTPase assays of purified Drp1 inhibitor samples, 0.6 μM Drp1 preincubated with 0.1 mg/mL liposomes (consisting of 80% soybean lipids/20% cardiolipin) and inhibitor was added to 1 mM GTP in a microtiter plate for 20 min at 37° C. in 4 mM MgCl2, 10 mM Hepes (pH 7.0), 100 mM KCl, 1 mM DTT. Reactions were stopped by diluting with 0.5 mM EDTA. Samples were then incubated with malachite green reagent (1 mM malachite green and 50 mM ammonium molybdate in 1 N HCl), and the absorbance at 650 nm was measured. The reaction rates, IC50 values, and max % inhibition were determined using Excel/GraphPad Prism software.

Sequences of proteins named here, by UniProt entry; tags and fusion partners are left off.
UniProt O00429, whole entry: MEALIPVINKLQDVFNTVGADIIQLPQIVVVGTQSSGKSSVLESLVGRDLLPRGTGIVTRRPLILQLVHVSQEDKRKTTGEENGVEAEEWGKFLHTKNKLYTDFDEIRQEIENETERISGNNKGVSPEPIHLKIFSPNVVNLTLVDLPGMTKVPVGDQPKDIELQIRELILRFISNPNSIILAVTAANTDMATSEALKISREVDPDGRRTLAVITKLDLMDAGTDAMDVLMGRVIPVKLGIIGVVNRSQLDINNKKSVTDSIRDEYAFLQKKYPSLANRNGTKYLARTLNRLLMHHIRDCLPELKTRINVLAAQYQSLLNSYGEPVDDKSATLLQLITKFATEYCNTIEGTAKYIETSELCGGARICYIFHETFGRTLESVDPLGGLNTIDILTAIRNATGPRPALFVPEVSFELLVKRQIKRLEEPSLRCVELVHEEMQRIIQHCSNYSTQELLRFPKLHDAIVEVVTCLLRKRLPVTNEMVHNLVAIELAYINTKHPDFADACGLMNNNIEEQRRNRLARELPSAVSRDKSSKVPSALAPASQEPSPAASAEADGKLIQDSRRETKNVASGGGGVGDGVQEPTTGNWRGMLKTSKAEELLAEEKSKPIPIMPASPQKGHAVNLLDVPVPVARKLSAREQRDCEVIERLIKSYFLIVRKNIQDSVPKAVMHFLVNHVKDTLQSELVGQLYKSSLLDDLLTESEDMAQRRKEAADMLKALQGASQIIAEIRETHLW

Turning to `Nc1cc(C(=O)Nc2ccc(C(=O)O)cc2)n(Cc2csc(N3CCCCC3)n2)c1` [Compound A-53, 4-(4-Amino-1-((2-(piperidin-1-yl)thiazol-4-yl)methyl)-1H-pyrrole-2-carboxamido)benzoic acid], the max % inh is reported as 32%.
Then `CC(=O)c1cc(C(=O)Nc2ccc(C(=O)O)cc2)n(Cc2csc(N3CCCCC3)n2)c1` [Compound A-56, 4-(4-acetyl-1-((2-(piperidin-1-yl)thiazol-4-yl)methyl)-1H-pyrrole-2-carboxamido)benzoic Acid], with 46%.

Source of the values: patent US11168080B2, “Dynamin-1-like protein inhibitors” (Mitobridge, Inc., priority 2017, dated 2021).
